This test concerns the target T1, human serum albumin (Homo sapiens, UniProt P02768).
T1 construct: purchased Chromtech Inc HSA 50.3 column
The experiment in a line: Elution from immobilized human serum albumin column; shift in retention time with glucose in eluent. The class given is binding. Particulars: retention time with no glucose vs 50 mM glucose in eluent; HSA column; marked *: eluted with a gradient to 70% buffer B. The protocol: The glucose sensitivity of insulin albumin binding can be determined by tuning glucose levels in the elution buffer and determine the shift in retention time as a function of the glucose concentration, table 1 below.
T 37° C., flow 0.7 mL/min, 20 uL of 10 uM samples, UV monitor 220 nm.
Compounds marked with an asterix were eluted with a gradient to 70% buffer B.

Protein sequences, listed by entry. Tags and fused reporters are not part of them. Residues count along the entry.
UniProt P02768, 25-609: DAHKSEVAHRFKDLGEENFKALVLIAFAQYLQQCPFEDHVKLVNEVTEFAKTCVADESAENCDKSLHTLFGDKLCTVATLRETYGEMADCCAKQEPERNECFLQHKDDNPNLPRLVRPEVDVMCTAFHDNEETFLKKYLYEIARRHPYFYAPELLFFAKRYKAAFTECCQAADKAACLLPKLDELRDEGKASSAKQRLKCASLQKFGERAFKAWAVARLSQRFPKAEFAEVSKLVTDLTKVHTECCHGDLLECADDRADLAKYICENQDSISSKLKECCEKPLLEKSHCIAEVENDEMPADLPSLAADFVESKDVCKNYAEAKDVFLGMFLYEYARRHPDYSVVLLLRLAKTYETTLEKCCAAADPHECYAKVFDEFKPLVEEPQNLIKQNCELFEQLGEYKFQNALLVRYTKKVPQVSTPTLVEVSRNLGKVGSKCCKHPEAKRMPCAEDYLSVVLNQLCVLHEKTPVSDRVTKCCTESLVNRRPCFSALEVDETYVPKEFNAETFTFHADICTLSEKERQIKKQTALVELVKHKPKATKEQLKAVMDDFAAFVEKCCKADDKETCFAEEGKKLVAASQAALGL

One substance from patent US20210024604A1, “NOVEL INSULIN DERIVATIVES” (Novo Nordisk A/S, priority 2009, published 2021) can be followed below.

Consider “A22M-15-(3,5-Diboronobenzoylamino)pentadecanoyl B29M-15-(3,5-diboronobenzoylamino)pentadecandioyl A14E A22K B25H desB30 Human Insulin [Example 15]”, for which the “Δ Rt” value is 1.0 min.
